# For part of these data: Most of the strong results are listed elsewhere, so they are rarer here than in the full data. No rule for the calls is given here. The entries are a selection whose mix differs from that of the whole data set.
# Protein sequences, listed by entry. Tags and fused reporters are not part of them. Lines headed by an entry give the natural chain unless they say otherwise; changes in a name come on top.
# UniProt Q5VT25: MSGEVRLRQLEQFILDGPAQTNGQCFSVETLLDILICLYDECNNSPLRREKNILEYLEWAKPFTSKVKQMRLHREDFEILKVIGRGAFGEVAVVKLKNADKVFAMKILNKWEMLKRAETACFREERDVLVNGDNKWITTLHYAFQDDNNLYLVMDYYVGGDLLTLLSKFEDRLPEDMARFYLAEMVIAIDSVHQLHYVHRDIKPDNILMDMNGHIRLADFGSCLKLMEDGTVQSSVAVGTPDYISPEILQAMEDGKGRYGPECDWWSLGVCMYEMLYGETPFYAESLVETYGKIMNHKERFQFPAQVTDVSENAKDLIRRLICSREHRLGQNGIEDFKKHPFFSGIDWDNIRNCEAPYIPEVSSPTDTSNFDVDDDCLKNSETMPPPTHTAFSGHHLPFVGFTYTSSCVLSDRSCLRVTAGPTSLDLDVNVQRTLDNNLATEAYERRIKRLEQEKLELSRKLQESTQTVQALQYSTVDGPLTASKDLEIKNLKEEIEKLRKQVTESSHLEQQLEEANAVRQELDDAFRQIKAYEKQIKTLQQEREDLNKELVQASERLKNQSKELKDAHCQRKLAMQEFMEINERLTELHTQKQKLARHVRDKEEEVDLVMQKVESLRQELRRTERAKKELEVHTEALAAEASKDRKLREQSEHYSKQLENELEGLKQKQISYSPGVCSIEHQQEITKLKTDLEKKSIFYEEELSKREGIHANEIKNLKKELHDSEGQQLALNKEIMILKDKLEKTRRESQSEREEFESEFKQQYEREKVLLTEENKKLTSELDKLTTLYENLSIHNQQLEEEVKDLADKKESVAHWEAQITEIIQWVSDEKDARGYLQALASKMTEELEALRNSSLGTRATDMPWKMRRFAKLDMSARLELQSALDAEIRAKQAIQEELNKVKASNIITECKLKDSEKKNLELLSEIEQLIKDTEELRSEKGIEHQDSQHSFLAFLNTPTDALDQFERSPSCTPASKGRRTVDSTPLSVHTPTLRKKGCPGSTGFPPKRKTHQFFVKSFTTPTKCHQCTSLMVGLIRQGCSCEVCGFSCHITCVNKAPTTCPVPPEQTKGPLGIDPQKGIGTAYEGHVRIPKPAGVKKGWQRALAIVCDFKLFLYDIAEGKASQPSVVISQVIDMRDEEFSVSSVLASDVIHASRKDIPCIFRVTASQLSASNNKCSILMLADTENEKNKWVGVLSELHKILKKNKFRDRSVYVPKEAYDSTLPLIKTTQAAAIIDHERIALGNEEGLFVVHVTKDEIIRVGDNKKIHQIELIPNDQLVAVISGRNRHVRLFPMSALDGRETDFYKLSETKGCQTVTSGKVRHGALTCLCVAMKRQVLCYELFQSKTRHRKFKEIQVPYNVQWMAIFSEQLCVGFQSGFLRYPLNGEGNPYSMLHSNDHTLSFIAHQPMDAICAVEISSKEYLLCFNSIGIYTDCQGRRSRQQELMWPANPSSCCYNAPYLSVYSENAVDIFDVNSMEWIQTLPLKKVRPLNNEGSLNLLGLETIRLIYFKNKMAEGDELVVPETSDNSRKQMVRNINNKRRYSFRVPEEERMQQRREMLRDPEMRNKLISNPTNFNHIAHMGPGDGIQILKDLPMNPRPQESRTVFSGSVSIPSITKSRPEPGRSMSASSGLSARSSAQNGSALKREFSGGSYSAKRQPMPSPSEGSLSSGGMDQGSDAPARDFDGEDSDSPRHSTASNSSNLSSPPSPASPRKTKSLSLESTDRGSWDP
# UniProt P51956: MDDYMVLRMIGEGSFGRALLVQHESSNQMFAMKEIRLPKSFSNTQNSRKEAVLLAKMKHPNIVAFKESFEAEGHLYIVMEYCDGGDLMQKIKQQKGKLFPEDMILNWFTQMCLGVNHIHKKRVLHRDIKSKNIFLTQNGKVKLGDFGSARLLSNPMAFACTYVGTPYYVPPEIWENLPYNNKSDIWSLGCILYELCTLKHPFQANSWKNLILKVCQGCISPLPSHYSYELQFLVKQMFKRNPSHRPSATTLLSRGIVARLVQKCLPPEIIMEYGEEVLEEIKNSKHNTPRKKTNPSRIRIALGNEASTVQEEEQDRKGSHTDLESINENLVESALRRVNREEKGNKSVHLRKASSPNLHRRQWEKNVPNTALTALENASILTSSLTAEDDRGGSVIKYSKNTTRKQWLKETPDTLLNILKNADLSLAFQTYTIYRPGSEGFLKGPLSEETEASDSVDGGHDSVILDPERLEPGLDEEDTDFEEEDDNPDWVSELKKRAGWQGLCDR
# UniProt Q86Y07: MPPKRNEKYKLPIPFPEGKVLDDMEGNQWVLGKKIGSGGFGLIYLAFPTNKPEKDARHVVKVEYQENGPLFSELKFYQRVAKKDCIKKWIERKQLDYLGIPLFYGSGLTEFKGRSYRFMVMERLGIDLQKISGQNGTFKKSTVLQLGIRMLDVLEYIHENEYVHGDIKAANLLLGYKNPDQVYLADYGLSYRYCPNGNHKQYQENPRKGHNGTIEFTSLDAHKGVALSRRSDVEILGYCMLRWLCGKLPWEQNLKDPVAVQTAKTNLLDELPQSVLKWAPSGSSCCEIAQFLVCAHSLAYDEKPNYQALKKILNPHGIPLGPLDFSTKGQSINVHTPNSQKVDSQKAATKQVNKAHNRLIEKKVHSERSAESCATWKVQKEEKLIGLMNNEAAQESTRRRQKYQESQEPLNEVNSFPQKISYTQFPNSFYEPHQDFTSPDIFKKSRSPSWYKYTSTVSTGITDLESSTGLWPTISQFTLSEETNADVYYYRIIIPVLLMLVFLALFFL
# UniProt Q9BYP7: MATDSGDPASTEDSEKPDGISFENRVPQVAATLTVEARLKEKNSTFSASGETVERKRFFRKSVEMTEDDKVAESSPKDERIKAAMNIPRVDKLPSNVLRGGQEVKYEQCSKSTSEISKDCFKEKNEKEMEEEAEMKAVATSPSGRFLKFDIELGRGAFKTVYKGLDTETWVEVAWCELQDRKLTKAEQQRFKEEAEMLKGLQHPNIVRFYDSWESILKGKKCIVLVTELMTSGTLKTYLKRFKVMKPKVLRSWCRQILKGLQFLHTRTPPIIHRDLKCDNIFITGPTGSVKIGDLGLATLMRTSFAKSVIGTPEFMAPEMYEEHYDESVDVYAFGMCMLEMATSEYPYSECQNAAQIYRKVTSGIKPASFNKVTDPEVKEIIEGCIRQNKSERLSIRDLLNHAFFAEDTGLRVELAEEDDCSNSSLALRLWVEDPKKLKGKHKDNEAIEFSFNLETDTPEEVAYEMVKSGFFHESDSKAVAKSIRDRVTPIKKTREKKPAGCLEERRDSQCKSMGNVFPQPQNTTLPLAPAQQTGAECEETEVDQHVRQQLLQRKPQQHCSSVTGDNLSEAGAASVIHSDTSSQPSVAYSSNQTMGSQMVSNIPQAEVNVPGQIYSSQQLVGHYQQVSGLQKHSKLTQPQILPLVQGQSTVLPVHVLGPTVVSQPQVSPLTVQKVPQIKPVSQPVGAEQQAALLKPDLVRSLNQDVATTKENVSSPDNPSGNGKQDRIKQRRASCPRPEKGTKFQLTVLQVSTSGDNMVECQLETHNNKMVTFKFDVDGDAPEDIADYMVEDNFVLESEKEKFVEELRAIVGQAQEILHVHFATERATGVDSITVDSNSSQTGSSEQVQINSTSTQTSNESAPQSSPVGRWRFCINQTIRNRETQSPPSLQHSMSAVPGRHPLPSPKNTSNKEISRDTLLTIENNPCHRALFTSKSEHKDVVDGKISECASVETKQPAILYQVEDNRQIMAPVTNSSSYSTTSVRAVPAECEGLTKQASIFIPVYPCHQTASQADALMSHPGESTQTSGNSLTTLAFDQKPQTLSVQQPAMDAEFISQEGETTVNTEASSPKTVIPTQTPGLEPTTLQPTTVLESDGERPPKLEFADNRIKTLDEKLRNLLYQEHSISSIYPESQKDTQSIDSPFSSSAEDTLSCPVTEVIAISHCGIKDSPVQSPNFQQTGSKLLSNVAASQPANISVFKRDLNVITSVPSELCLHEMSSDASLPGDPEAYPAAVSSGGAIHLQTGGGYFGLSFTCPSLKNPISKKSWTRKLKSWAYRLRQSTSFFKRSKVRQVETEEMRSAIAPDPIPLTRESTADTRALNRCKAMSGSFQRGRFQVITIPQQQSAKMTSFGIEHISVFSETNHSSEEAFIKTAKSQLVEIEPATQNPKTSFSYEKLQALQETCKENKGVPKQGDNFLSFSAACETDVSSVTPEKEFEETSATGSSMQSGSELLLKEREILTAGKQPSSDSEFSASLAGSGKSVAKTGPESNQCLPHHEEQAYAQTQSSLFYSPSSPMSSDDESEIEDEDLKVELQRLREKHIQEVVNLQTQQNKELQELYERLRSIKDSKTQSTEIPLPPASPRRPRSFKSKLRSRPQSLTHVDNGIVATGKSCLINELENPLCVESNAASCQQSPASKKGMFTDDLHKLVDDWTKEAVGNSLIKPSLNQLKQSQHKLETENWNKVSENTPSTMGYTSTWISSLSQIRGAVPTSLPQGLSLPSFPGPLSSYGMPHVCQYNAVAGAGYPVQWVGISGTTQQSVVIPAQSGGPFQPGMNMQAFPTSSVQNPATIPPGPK
# UniProt P31749: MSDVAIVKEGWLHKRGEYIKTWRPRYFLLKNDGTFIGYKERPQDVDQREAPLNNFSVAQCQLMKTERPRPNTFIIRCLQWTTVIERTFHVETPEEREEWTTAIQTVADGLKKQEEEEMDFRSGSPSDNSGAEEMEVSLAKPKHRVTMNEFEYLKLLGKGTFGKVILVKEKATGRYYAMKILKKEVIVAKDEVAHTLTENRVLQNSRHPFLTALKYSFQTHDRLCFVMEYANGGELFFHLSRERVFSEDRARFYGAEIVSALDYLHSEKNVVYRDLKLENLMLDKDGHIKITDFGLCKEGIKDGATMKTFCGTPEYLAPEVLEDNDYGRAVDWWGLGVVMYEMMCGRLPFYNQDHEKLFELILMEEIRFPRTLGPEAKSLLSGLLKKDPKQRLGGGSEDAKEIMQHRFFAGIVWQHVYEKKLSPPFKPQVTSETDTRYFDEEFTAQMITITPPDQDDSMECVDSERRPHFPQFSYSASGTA
# UniProt P05771, whole entry, looked up: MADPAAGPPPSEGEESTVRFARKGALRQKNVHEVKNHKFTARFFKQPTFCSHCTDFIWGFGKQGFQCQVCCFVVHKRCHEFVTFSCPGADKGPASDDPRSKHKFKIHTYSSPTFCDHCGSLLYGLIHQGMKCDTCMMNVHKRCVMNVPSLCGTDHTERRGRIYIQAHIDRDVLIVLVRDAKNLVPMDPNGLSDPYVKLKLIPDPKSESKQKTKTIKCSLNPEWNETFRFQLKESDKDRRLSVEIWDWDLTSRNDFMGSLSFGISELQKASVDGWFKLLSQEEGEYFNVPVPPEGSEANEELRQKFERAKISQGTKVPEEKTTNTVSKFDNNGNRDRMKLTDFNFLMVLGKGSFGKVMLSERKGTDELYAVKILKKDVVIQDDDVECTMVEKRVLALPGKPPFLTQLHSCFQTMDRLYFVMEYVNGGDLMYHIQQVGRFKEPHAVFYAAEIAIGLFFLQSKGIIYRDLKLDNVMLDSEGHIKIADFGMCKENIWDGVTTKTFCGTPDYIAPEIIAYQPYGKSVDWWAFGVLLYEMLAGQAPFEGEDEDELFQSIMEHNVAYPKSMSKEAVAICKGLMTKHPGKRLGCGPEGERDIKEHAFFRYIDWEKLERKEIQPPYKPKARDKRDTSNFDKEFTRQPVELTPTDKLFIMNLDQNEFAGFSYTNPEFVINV
# UniProt Q05655: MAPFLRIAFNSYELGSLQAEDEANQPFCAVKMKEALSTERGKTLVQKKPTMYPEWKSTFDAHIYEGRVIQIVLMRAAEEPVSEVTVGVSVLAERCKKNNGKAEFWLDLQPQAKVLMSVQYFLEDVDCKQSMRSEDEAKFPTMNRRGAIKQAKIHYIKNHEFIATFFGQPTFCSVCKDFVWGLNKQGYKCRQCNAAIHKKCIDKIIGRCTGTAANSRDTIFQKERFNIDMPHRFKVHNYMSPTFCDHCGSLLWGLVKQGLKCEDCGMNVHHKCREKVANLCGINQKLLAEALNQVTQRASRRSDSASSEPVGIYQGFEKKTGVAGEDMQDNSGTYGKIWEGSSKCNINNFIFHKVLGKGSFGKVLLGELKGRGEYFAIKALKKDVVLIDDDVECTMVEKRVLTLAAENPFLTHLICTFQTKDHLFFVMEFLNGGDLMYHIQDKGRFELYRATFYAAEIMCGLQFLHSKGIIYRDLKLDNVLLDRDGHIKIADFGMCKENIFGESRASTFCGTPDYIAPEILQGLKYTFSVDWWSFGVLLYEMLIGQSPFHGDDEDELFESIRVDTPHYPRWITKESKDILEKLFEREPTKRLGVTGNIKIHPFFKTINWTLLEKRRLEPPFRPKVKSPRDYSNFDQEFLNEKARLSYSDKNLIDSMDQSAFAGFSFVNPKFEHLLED
# Key:
# [1] = target: T1, Serine/threonine-protein kinase TAO2 (Homo sapiens) (UniProt Q9UL54); conditions: at 1 µM
# T1 sequence (whole entry): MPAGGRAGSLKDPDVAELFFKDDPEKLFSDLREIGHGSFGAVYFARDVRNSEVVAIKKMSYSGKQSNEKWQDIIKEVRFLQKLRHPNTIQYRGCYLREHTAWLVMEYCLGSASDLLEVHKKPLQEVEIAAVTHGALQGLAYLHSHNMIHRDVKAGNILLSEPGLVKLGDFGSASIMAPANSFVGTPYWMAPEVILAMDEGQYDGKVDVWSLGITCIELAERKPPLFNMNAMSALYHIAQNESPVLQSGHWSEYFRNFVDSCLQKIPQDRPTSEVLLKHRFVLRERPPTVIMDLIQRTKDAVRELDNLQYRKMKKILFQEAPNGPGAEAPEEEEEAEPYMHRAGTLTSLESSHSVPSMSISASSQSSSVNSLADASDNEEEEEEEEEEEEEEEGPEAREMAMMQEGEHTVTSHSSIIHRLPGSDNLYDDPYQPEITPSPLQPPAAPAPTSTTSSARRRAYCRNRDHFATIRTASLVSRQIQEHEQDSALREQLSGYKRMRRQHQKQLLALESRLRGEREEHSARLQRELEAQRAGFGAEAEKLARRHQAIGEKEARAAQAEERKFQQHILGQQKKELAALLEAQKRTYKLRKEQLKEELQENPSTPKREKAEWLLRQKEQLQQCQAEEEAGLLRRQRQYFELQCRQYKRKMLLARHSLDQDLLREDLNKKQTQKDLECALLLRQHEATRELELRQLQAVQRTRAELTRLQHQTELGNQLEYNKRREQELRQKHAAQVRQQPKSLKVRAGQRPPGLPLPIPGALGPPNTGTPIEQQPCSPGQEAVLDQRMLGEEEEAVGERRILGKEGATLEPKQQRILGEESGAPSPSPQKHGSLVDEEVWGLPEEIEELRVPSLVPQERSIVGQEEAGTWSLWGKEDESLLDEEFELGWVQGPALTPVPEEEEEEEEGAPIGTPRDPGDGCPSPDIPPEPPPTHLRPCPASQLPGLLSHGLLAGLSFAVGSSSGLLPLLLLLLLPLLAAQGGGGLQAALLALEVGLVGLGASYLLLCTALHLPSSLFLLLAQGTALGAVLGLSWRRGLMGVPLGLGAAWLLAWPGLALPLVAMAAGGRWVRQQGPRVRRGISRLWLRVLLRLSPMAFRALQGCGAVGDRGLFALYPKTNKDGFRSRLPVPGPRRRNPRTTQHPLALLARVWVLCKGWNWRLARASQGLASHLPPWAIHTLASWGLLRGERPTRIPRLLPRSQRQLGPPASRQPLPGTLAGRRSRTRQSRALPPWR
# [2] = target: T2, TGF-beta receptor type-1 (Homo sapiens) (UniProt P36897); conditions: at 10 µM
# T2 sequence (whole entry): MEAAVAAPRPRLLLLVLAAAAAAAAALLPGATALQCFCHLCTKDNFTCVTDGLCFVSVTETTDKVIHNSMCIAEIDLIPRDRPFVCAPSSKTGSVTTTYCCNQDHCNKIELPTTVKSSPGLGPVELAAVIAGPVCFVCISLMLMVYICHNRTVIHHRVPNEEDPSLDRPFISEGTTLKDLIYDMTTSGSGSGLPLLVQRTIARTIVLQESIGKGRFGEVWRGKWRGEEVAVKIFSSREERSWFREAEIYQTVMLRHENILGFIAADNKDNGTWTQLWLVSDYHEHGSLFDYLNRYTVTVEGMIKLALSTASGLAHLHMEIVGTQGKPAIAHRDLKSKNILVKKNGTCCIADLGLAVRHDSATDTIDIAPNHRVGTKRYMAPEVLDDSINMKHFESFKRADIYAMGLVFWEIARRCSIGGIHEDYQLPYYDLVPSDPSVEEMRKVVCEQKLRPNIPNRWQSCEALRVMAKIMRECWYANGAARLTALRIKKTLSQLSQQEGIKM
# [3] = target: Inhibitor of nuclear factor kappa-B kinase subunit beta (Homo sapiens) (UniProt O14920); conditions: at 10 µM
# [4] = target: Mitogen-activated protein kinase 9 (Homo sapiens) (UniProt P45984); conditions: at 10 µM
# [5] = target: T3, Serine/threonine-protein kinase STK11 (Homo sapiens) (UniProt Q15831); conditions: at 1 µM
# T3 sequence (whole entry): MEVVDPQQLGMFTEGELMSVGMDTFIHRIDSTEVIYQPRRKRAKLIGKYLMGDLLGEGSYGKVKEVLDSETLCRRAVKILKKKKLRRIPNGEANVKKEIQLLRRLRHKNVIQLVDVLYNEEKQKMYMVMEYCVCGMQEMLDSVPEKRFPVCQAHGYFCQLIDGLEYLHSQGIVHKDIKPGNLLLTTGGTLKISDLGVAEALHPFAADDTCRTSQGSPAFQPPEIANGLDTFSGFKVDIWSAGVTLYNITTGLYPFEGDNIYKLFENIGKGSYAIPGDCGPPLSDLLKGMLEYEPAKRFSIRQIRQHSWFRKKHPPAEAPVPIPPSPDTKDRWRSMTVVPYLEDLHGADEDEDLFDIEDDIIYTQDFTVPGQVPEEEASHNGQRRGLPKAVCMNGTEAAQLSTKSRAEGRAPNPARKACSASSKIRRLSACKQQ
# [6] = target: T3, Serine/threonine-protein kinase STK11 (Homo sapiens); conditions: at 10 µM
# [7] = target: Mitogen-activated protein kinase 3 (Homo sapiens) (UniProt P27361); conditions: at 1 µM
# [8] = target: Mitogen-activated protein kinase 1 (Homo sapiens) (UniProt P28482); conditions: at 1 µM
# [9] = target: Mitogen-activated protein kinase 1 (Homo sapiens) (UniProt P28482); conditions: at 10 µM
# [10] = target: MAP kinase-activated protein kinase 2 (Homo sapiens) (UniProt P49137); conditions: at 10 µM
# [11] = target: Serine/threonine-protein kinase MRCK alpha (Homo sapiens) (UniProt Q5VT25); conditions: at 1 µM
# [12] = target: Serine/threonine-protein kinase MRCK beta (Homo sapiens) (UniProt Q9Y5S2); conditions: at 1 µM
# [13] = target: Serine/threonine-protein kinase MRCK beta (Homo sapiens) (UniProt Q9Y5S2); conditions: at 10 µM
# [14] = target: Serine/threonine-protein kinase Nek3 (Homo sapiens) (UniProt P51956); conditions: at 1 µM;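 also: residual NEK3 kinase activity given as percent of control, assayed in 8 mM MOPS buffer pH 7.0 containing 0.2 mM EDTA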
# [15] = target: Serine/threonine-protein kinase VRK2 (Homo sapiens) (UniProt Q86Y07); conditions: at 1 µM;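 also: remaining VRK2 kinase activity expressed as percent of uninhibited control, measured in MOPS buffer at pH 7.0 containing EDTA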
# [16] = target: Serine/threonine-protein kinase WNK3 (Homo sapiens) (UniProt Q9BYP7); conditions: at 1 µM;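 also: remaining kinase activity expressed versus control, assayed in 8 mM MOPS buffer pH 7.0 with 0.2 mM EDTA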
# [17] = target: RAF proto-oncogene serine/threonine-protein kinase (Homo sapiens) (UniProt P04049); conditions: at 1 µM
# [18] = target: RAF proto-oncogene serine/threonine-protein kinase (Homo sapiens) (UniProt P04049); conditions: at 10 µM
# [19] = target: Serine/threonine-protein kinase mTOR (Homo sapiens) (UniProt P42345); conditions: at 10 µM
# [20] = target: T4, Serine/threonine-protein kinase Nek6 (Homo sapiens) (UniProt Q9HC98); conditions: at 1 µM
# T4 sequence (whole entry): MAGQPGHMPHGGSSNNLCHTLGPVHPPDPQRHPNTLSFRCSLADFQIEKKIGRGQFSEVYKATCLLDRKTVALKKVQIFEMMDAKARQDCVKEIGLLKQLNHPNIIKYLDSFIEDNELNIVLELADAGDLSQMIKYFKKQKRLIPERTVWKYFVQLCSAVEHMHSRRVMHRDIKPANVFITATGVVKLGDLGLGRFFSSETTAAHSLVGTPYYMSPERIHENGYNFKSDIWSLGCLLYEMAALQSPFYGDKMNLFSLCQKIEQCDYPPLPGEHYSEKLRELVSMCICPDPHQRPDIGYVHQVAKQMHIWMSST
# [21] = target: T4, Serine/threonine-protein kinase Nek6 (Homo sapiens); conditions: at 10 µM
# [22] = target: T5, Serine/threonine-protein kinase NLK (Homo sapiens) (UniProt Q9UBE8); conditions: at 1 µM
# T5 sequence (whole entry): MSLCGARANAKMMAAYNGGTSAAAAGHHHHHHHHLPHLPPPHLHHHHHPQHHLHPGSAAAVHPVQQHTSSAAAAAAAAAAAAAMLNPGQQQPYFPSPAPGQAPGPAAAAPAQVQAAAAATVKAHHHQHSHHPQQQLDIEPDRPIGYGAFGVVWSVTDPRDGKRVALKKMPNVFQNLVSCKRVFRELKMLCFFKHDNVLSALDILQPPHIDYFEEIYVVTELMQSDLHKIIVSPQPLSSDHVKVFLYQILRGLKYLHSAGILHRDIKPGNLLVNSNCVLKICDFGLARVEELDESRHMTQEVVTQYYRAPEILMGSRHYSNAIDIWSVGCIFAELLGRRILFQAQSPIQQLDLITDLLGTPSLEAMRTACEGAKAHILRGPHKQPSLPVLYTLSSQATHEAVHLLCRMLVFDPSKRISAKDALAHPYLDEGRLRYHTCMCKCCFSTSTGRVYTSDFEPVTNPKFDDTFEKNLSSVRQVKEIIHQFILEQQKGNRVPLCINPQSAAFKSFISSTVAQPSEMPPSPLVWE
# [23] = target: T5, Serine/threonine-protein kinase NLK (Homo sapiens); conditions: at 10 µM
# [24] = target: Serine/threonine-protein kinase PAK 2 (Homo sapiens) (UniProt Q13177); conditions: at 1 µM
# [25] = target: cAMP-dependent protein kinase catalytic subunit alpha (Homo sapiens) (UniProt P17612); conditions: at 10 µM
# [26] = target: RAC-alpha serine/threonine-protein kinase (Homo sapiens) (UniProt P31749); conditions: at 1 µM
# [27] = target: Protein kinase C beta type (Homo sapiens) (UniProt P05771); conditions: at 1 µM
# [28] = target: Protein kinase C beta type (Homo sapiens) (UniProt P05771); conditions: at 10 µM
# [29] = target: Protein kinase C delta type (Homo sapiens) (UniProt Q05655); conditions: at 1 µM
# [30] = target: T6, Protein kinase C epsilon type (Homo sapiens) (UniProt Q02156); conditions: at 10 µM
# T6 sequence (whole entry): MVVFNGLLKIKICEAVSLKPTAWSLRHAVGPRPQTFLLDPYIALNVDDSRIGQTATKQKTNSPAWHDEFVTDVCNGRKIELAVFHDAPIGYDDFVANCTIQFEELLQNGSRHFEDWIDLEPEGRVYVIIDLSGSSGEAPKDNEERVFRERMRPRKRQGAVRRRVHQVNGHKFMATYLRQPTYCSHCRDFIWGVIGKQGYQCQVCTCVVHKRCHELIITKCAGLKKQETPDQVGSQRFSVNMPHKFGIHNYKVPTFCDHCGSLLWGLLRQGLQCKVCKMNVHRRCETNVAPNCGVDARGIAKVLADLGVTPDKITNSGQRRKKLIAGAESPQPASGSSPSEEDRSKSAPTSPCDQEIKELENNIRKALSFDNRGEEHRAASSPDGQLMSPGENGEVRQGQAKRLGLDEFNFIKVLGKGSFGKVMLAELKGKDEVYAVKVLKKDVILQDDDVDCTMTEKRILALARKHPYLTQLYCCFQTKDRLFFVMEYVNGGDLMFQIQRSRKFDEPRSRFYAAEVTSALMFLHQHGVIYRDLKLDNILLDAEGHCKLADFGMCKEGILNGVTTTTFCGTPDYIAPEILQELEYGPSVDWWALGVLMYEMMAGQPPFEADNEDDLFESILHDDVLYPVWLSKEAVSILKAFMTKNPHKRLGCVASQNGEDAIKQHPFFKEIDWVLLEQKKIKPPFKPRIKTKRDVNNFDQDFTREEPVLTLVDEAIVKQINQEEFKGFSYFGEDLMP
compound,measurement,setting,value
CCN(CC)CCNC(=O)c1c(C)[nH]c(/C=C2\C(=O)Nc3ccc(Cl)cc32)c1C,residual activity,[1],89%
same,residual activity,[2],83%
same,residual activity,[3],79%
same,residual activity,[4],95%
same,residual activity,[5],98%
same,residual activity,[6],86%
same,residual activity,[7],91%
same,residual activity,[8],97%
same,residual activity,[9],91%
same,residual activity,[10],86%
same,residual activity,[11],118%
same,residual activity,[12],103%
same,residual activity,[13],91%
same,residual activity,[14],111%
same,residual activity,[15],inactive: 108%
same,residual activity,[16],inactive: 94%
same,residual activity,[17],97%
same,residual activity,[18],102%
same,residual activity,[19],102%
same,residual activity,[20],inactive: 91%
same,residual activity,[21],96%
same,residual activity,[22],102%
same,residual activity,[23],86%
same,residual activity,[24],110%
same,residual activity,[25],93%
same,residual activity,[26],99%
same,residual activity,[27],105%
same,residual activity,[28],94%
same,residual activity,[29],95%
same,residual activity,[30],108%

# From ChEMBL document CHEMBL2218924, “A broad activity screen in support of a chemogenomic map for kinase signalling research and drug discovery” (Biochem J, 2013)
